Legend:
[1] = molecular target: T1, 14‐3‐3η (human, UniProt Q04917 1-246); assay: SPR; 14-3-3η immobilised on an NTA sensor chip (Ni2+ capture and amine coupling, about 2000 RU); acetylated peptides injected, 11 serial dilutions from 10x the FA Kd; 25 °C; Biacore T200; multicycle kinetics fitted to a Langmuir model, Kd from steady state dose-response; settings: both partners purified
T1 construct: 14-3-3 eta, human, full-length protein from the pProEx HTb-His-14-3-3 construct; Captured on an NTA chip in SPR; source: E. coli BL21(DE3), purified (Ni2+-NTA, dialysis)
T1 sequence (looked up): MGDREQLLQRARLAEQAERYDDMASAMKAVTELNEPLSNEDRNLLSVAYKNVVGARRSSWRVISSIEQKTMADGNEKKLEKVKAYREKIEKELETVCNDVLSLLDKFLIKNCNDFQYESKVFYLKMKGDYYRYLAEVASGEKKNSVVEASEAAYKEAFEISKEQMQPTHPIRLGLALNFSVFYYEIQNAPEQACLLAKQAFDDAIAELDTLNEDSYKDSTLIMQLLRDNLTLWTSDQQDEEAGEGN

[2] = molecular target: T1, 14‐3‐3η; assay: ITC; acetylated peptide in the syringe titrated into 14-3-3η in the cell; 25 °C; 25 mM HEPES pH 7.5, 100 mM NaCl, 10 mM MgCl2, 0.5 mM TCEP; MicroCal iTC200; settings: both partners purified

B1: Ac‐hDM2_(160‐192) ^pSer166/pSer186 (peptide)
peptide: SRRRAISETEENSDELSGERQRKRHKSDSISLS
modifications: phosphoserine at 166 and at 186; N-terminal acetyl; C-terminal amide
notes: hDM2 (human double minute 2 protein), human, residues 160-192; Acetylated form used for ITC and SPR; source: synthetic peptide (Fmoc SPPS on Rink amide ProTide resin, HPLC purified)
Kd [1]: 155 nM
Kd [2]: 151 ± 57 nM

— paper PMC9541495, “Understanding the interaction of 14‐3‐3 proteins with hDMX and hDM2: a structural and biophysical study” (The Febs Journal, 2022)
